These are literature values, as cited in PMC8765435, “In Vitro Antimalarial Activity of Inhibitors of the Human GTPase Rac1” (Antimicrobial Agents and Chemotherapy, 2022).

The target of the data set is Rac1 (Homo sapiens, UniProt P63000). Particulars: Rac1 activity in human smooth muscle cells; cited from earlier work.

The structures appear in SMILES notation.

As usually defined, the IC50 is the concentration that inhibits the measured activity by half. For the compound `O=C(Nc1ccc(S(=O)(=O)N2CCCCC2)cc1)c1cc(-c2ccccc2O)n[nH]1`, the IC50 was 8.7 µM.
